The entries are a selection whose mix differs from that of the whole data set. Activity calls are given as the source filed them. Cut-off read from the data, not from the text of the source: active = activation above about 15%; inactive = the rest.
These molecules were tested against Galanin receptor type 2 (Rattus norvegicus) (UniProt O08726) (assay: activates the rat galanin receptor 2 (AID 833)). Conditions: cell-based GALR2 agonist screen; at 10 µM; active compounds read high.

By UniProt entry, the sequences of proteins in these tests, tags left out.
UniProt O08726, whole entry: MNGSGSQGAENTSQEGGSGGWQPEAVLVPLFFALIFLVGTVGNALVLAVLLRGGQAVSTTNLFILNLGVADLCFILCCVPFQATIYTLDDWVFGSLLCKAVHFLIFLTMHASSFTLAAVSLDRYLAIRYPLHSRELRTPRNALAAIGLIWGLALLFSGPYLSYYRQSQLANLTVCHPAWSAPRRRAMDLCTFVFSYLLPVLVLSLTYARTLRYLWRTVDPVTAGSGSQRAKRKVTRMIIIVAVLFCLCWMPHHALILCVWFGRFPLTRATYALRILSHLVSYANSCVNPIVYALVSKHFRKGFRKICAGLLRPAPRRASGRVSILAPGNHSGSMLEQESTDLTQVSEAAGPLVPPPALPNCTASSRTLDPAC

Compound	activation
Cc1ccccc1NC1CC(C)(C)NC(C)(C)C1	inactive: -5.15%

— PubChem BioAssay AID833 (The Scripps Research Institute Molecular Screening Center, 2007)
